# Cyclic peptide permeability, from CycPeptMPDB

PAMPA is the parallel artificial membrane permeability assay, which has no cells and reads passive diffusion. Permeability is in 10^-6 cm/s, converted from the database's log10 values; higher is more permeable.

| compound | PAMPA (10^-6 cm/s) |
|---|---|
| CC(=O)N1CCC[C@H]1C(=O)N(C)[C@@H](CC(C)C)C(=O)N[C@@H]1C(=O)N[C@H](CC(C)C)C(=O)N[C@H](CC(C)C)C(=O)N(C)[C@H](CC(C)C)C(=O)N(C)[C@@H](C)C(=O)N[C@H](CC(C)C)C(=O)N2CCC[C@H]2C(=O)O[C@@H]1C | 3 |
| CC(=O)N1CCC[C@@H]1C(=O)N(C)[C@@H](CC(C)C)C(=O)N[C@@H]1C(=O)N(C)[C@@H](CC(C)C)C(=O)N(C)[C@@H](CC(C)C)C(=O)N[C@@H](CC(C)C)C(=O)N[C@@H](C)C(=O)N[C@H](CC(C)C)C(=O)N2CCC[C@H]2C(=O)O[C@@H]1C | 0.043 |
| CC(=O)N1CCC[C@H]1C(=O)N[C@@H]1C(=O)N[C@H](CC(C)C)C(=O)N[C@H](CC(C)C)C(=O)N[C@H](CC(C)C)C(=O)N[C@@H](CC(C)C)C(=O)N[C@H](C)C(=O)N[C@@H](CC(C)C)C(=O)N2CCC[C@@H]2C(=O)O[C@@H]1C | 0.23 |
| CC(=O)N1CCC[C@H]1C(=O)N(C)[C@@H](CC(C)C)C(=O)N[C@@H]1C(=O)N[C@H](CC(C)C)C(=O)N(C)[C@H](CC(C)C)C(=O)N[C@H](CC(C)C)C(=O)N[C@@H](C)C(=O)N[C@H](CC(C)C)C(=O)N2CCC[C@@H]2C(=O)O[C@@H]1C | 0.41 |
| CC(=O)N[C@@H]1C(=O)N2CCC[C@H]2C(=O)N(C)[C@H](CC(C)C)C(=O)N[C@H](CC(C)C)C(=O)N[C@@H](CC(C)C)C(=O)N(C)[C@@H](CC(C)C)C(=O)N(C)[C@H](C)C(=O)N[C@@H](CC(C)C)C(=O)N2CCC[C@@H]2C(=O)O[C@@H]1C | 1.5 |
| CC(=O)N1CCC[C@@H]1C(=O)N(C)[C@H](CC(C)C)C(=O)N[C@@H]1C(=O)N[C@@H](CC(C)C)C(=O)N[C@H](CC(C)C)C(=O)N[C@H](CC(C)C)C(=O)N[C@H](C)C(=O)N[C@@H](CC(C)C)C(=O)N2CCC[C@@H]2C(=O)O[C@@H]1C | 0.047 |
| CC(=O)N1CCC[C@@H]1C(=O)N(C)[C@H](CC(C)C)C(=O)N[C@@H]1C(=O)N(C)[C@H](CC(C)C)C(=O)N[C@@H](CC(C)C)C(=O)N(C)[C@@H](CC(C)C)C(=O)N(C)[C@H](C)C(=O)N[C@@H](CC(C)C)C(=O)N2CCC[C@@H]2C(=O)O[C@@H]1C | 2.3 |
| CC(=O)N1CCC[C@H]1C(=O)N(C)[C@@H](CC(C)C)C(=O)N[C@@H]1C(=O)N[C@H](CC(C)C)C(=O)N[C@@H](CC(C)C)C(=O)N(C)[C@@H](CC(C)C)C(=O)N(C)[C@@H](C)C(=O)N[C@H](CC(C)C)C(=O)N2CCC[C@@H]2C(=O)O[C@@H]1C | 0.22 |
| CC(=O)N1CCC[C@H]1C(=O)N(C)[C@@H](CC(C)C)C(=O)N[C@@H]1C(=O)N(C)[C@H](CC(C)C)C(=O)N(C)[C@H](CC(C)C)C(=O)N[C@@H](CC(C)C)C(=O)N(C)[C@@H](C)C(=O)N[C@H](CC(C)C)C(=O)N2CCC[C@@H]2C(=O)O[C@@H]1C | 5.8 |
| CC(=O)N1CCC[C@H]1C(=O)N(C)[C@H](CC(C)C)C(=O)N[C@@H]1C(=O)N(C)[C@@H](CC(C)C)C(=O)N[C@@H](CC(C)C)C(=O)N[C@@H](CC(C)C)C(=O)N(C)[C@@H](C)C(=O)N[C@H](CC(C)C)C(=O)N2CCC[C@@H]2C(=O)O[C@@H]1C | 1.7 |
| CC(=O)N1CCC[C@H]1C(=O)N(C)[C@@H](CC(C)C)C(=O)N[C@@H]1C(=O)N[C@@H](CC(C)C)C(=O)N[C@@H](CC(C)C)C(=O)N(C)[C@@H](CC(C)C)C(=O)N(C)[C@@H](C)C(=O)N[C@@H](CC(C)C)C(=O)N2CCC[C@H]2C(=O)O[C@@H]1C | 0.32 |
| CC(=O)N1CCC[C@H]1C(=O)N[C@@H]1C(=O)N[C@H](CC(C)C)C(=O)N[C@H](CC(C)C)C(=O)N[C@@H](CC(C)C)C(=O)N(C)[C@@H](CC(C)C)C(=O)N(C)[C@@H](C)C(=O)N[C@@H](CC(C)C)C(=O)N2CCC[C@@H]2C(=O)O[C@@H]1C | 0.69 |
| CC(=O)N1CCC[C@@H]1C(=O)N(C)[C@H](CC(C)C)C(=O)N[C@@H]1C(=O)N[C@@H](CC(C)C)C(=O)N(C)[C@@H](CC(C)C)C(=O)N(C)[C@H](CC(C)C)C(=O)N[C@@H](C)C(=O)N[C@@H](CC(C)C)C(=O)N2CCC[C@H]2C(=O)O[C@@H]1C | 0.066 |
| CC(=O)N1CCC[C@@H]1C(=O)N(C)[C@H](CC(C)C)C(=O)N[C@@H]1C(=O)N[C@H](CC(C)C)C(=O)N[C@H](CC(C)C)C(=O)N(C)[C@H](CC(C)C)C(=O)N(C)[C@H](C)C(=O)N[C@@H](CC(C)C)C(=O)N2CCC[C@H]2C(=O)O[C@@H]1C | 0.45 |
| CC(=O)N1CCC[C@@H]1C(=O)N(C)[C@@H](CC(C)C)C(=O)N[C@@H]1C(=O)N[C@@H](CC(C)C)C(=O)N(C)[C@H](CC(C)C)C(=O)N(C)[C@@H](CC(C)C)C(=O)N(C)[C@H](C)C(=O)N[C@@H](CC(C)C)C(=O)N2CCC[C@@H]2C(=O)O[C@@H]1C | 7.4 |
| CC(=O)N1CCC[C@@H]1C(=O)N(C)[C@H](CC(C)C)C(=O)N[C@@H]1C(=O)N(C)[C@@H](CC(C)C)C(=O)N(C)[C@@H](CC(C)C)C(=O)N(C)[C@H](CC(C)C)C(=O)N(C)[C@@H](C)C(=O)N[C@H](CC(C)C)C(=O)N2CCC[C@@H]2C(=O)O[C@@H]1C | 8.1 |
| CC(=O)N1CCC[C@H]1C(=O)N(C)[C@@H](CC(C)C)C(=O)N[C@@H]1C(=O)N(C)[C@H](CC(C)C)C(=O)N[C@H](CC(C)C)C(=O)N(C)[C@@H](CC(C)C)C(=O)N(C)[C@@H](C)C(=O)N[C@H](CC(C)C)C(=O)N2CCC[C@@H]2C(=O)O[C@@H]1C | 1.7 |
| CC(=O)N1CCC[C@H]1C(=O)N(C)[C@H](CC(C)C)C(=O)N[C@@H]1C(=O)N[C@@H](CC(C)C)C(=O)N(C)[C@@H](CC(C)C)C(=O)N[C@@H](CC(C)C)C(=O)N(C)[C@@H](C)C(=O)N[C@@H](CC(C)C)C(=O)N2CCC[C@@H]2C(=O)O[C@@H]1C | 3 |
| CC(=O)N1CCC[C@H]1C(=O)N(C)[C@@H](CC(C)C)C(=O)N[C@@H]1C(=O)N[C@H](CC(C)C)C(=O)N(C)[C@H](CC(C)C)C(=O)N(C)[C@H](CC(C)C)C(=O)N[C@@H](C)C(=O)N[C@@H](CC(C)C)C(=O)N2CCC[C@@H]2C(=O)O[C@@H]1C | 2.1 |
| CC(=O)N1CCC[C@H]1C(=O)N(C)[C@@H](CC(C)C)C(=O)N[C@@H]1C(=O)N(C)[C@H](CC(C)C)C(=O)N[C@@H](CC(C)C)C(=O)N(C)[C@H](CC(C)C)C(=O)N(C)[C@H](C)C(=O)N[C@@H](CC(C)C)C(=O)N2CCC[C@@H]2C(=O)O[C@@H]1C | 2.6 |
| CC(=O)N1CCC[C@H]1C(=O)N[C@@H]1C(=O)N[C@H](CC(C)C)C(=O)N[C@@H](CC(C)C)C(=O)N[C@H](CC(C)C)C(=O)N[C@@H](CC(C)C)C(=O)N(C)[C@H](C)C(=O)N[C@@H](CC(C)C)C(=O)N2CCC[C@@H]2C(=O)O[C@@H]1C | 0.4 |
| CC(=O)N1CCC[C@H]1C(=O)N(C)[C@@H](CC(C)C)C(=O)N[C@@H]1C(=O)N[C@H](CC(C)C)C(=O)N(C)[C@@H](CC(C)C)C(=O)N(C)[C@H](CC(C)C)C(=O)N[C@@H](C)C(=O)N[C@H](CC(C)C)C(=O)N2CCC[C@H]2C(=O)O[C@@H]1C | 5.1 |
| CC(=O)N1CCC[C@@H]1C(=O)N(C)[C@H](CC(C)C)C(=O)N[C@@H]1C(=O)N[C@H](CC(C)C)C(=O)N(C)[C@H](CC(C)C)C(=O)N(C)[C@H](CC(C)C)C(=O)N[C@@H](C)C(=O)N[C@H](CC(C)C)C(=O)N2CCC[C@H]2C(=O)O[C@@H]1C | 1.8 |
| CC(=O)N1CCC[C@H]1C(=O)N(C)[C@@H](CC(C)C)C(=O)N[C@@H]1C(=O)N(C)[C@H](CC(C)C)C(=O)N(C)[C@@H](CC(C)C)C(=O)N(C)[C@@H](CC(C)C)C(=O)N(C)[C@@H](C)C(=O)N[C@@H](CC(C)C)C(=O)N2CCC[C@@H]2C(=O)O[C@@H]1C | 3.5 |

The first 4 entries again:

| compound | PAMPA (10^-6 cm/s) |
|---|---|
| CC(=O)N1CCC[C@H]1C(=O)N(C)[C@@H](CC(C)C)C(=O)N[C@@H]1C(=O)N[C@H](CC(C)C)C(=O)N[C@H](CC(C)C)C(=O)N(C)[C@H](CC(C)C)C(=O)N(C)[C@@H](C)C(=O)N[C@H](CC(C)C)C(=O)N2CCC[C@H]2C(=O)O[C@@H]1C | 3 |
| CC(=O)N1CCC[C@@H]1C(=O)N(C)[C@@H](CC(C)C)C(=O)N[C@@H]1C(=O)N(C)[C@@H](CC(C)C)C(=O)N(C)[C@@H](CC(C)C)C(=O)N[C@@H](CC(C)C)C(=O)N[C@@H](C)C(=O)N[C@H](CC(C)C)C(=O)N2CCC[C@H]2C(=O)O[C@@H]1C | 0.043 |
| CC(=O)N1CCC[C@H]1C(=O)N[C@@H]1C(=O)N[C@H](CC(C)C)C(=O)N[C@H](CC(C)C)C(=O)N[C@H](CC(C)C)C(=O)N[C@@H](CC(C)C)C(=O)N[C@H](C)C(=O)N[C@@H](CC(C)C)C(=O)N2CCC[C@@H]2C(=O)O[C@@H]1C | 0.23 |
| CC(=O)N1CCC[C@H]1C(=O)N(C)[C@@H](CC(C)C)C(=O)N[C@@H]1C(=O)N[C@H](CC(C)C)C(=O)N(C)[C@H](CC(C)C)C(=O)N[C@H](CC(C)C)C(=O)N[C@@H](C)C(=O)N[C@H](CC(C)C)C(=O)N2CCC[C@@H]2C(=O)O[C@@H]1C | 0.41 |

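Conditions beyond the assay type are not listed; see the original paper. The list need not hold all peptides of the study. Peptides that the database sets to -10, its floor, are left out.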

Data: CycPeptMPDB; original report Kelly et al. 2021, doi:10.1021/jacs.0c06115.